The chains behind the UniProt entries cited, without tags or fusion partners.
UniProt Q7Z3E1, whole entry: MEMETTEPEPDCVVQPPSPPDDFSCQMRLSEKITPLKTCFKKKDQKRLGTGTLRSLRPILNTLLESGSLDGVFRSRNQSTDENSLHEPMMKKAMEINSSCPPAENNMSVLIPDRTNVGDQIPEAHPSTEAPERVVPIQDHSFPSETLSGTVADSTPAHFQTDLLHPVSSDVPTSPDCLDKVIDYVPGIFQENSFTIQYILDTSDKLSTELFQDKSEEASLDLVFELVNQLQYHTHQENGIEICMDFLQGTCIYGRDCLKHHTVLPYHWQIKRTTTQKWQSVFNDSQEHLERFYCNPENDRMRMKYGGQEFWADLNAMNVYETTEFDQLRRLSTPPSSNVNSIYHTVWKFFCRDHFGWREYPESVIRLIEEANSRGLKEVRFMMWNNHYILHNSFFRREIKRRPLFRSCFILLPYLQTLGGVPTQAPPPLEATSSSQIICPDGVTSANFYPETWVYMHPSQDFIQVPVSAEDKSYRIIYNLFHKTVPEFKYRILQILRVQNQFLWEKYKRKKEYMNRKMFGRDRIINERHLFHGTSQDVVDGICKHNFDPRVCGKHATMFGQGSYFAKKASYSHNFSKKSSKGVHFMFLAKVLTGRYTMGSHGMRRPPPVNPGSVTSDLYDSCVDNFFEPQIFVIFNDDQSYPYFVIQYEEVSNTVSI
UniProt Q9H0J9, whole entry: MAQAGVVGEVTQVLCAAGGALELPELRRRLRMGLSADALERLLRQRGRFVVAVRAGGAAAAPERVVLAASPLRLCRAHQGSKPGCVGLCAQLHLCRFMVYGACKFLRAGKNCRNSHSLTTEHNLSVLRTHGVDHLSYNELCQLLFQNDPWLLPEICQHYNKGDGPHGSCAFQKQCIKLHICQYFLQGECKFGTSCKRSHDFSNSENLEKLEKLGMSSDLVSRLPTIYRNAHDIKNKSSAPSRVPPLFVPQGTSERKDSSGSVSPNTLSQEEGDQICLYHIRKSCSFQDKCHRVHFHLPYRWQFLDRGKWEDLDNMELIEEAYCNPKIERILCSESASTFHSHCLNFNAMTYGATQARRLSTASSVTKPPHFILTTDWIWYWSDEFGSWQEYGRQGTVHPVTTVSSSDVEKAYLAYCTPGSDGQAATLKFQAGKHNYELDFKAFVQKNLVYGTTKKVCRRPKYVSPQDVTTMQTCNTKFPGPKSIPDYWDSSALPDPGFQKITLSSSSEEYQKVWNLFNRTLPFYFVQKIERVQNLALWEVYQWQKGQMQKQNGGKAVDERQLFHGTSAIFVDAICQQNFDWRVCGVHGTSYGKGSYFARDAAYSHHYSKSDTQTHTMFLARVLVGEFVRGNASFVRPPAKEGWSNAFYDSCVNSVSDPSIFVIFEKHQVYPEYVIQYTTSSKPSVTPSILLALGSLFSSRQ
UniProt P09874, whole entry: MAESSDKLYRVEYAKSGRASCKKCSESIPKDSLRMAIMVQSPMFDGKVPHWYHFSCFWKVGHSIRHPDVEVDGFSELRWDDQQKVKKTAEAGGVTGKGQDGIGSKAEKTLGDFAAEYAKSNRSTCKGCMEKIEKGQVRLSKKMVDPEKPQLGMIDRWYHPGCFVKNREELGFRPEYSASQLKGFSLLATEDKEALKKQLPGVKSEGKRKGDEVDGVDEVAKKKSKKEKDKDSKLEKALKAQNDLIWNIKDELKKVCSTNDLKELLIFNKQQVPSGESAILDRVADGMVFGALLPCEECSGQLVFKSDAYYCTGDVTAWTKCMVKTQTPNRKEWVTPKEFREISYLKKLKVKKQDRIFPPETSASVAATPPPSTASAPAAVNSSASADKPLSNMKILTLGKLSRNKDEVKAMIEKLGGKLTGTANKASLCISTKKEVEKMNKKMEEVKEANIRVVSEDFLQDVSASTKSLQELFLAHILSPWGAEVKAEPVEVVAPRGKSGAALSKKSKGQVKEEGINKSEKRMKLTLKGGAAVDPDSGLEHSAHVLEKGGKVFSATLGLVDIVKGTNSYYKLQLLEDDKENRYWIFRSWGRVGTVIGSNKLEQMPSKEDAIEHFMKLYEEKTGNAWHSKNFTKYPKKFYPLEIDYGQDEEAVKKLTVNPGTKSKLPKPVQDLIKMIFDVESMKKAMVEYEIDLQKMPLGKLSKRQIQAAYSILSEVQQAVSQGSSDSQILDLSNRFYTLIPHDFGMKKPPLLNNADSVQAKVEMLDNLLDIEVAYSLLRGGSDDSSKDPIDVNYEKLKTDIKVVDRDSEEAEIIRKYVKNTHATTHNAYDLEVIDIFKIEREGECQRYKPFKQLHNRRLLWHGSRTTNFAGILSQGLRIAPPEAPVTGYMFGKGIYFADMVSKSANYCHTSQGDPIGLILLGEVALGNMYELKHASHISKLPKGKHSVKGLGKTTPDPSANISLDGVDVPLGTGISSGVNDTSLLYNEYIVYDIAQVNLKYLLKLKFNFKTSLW

In patent EP4834901A1, “PARP7 INHIBITOR AND USE THEREOF” (dated 2026):

What was measured:
Recombinant human PARP7 = Recombinant human PARP7 (Homo sapiens, UniProt Q7Z3E1); test: Inhibitory effect of the compounds on PARP7 enzyme activity (histone-coated plate, Biotin-NAD+, chemiluminescence); settings: read-out: PARP7 IC50
recombinant human PARP12 = recombinant human PARP12 (Homo sapiens, UniProt Q9H0J9); test: Inhibition of PARP12 enzyme activity (same method as PARP7 except for the enzyme); settings: for PARP 12 IC50/PARP7 IC50: fold selectivity PARP12 relative to PARP7; for IC50: read-out: PARP12 IC50, recombinant human PARP12
[1] = target: recombinant human PARP1 protein (Homo sapiens, UniProt P09874); test: Inhibition of PARP1 enzyme activity (histone-coated plate, activated DNA, Biotin-NAD+, chemiluminescence); settings: for PARP1 IC50/PARP7 IC50: fold selectivity PARP1 relative to PARP7; for IC50: read-out: PARP 1 IC50, recombinant human PARP1 protein
[2] = Pharmacokinetic study in mice; settings: for AUC last / Cmax: plasma; for T1/2: plasma half-life; for drug clearance rate (CL(iv)) of RBN-2397 relative to that of the compound: intravenous administration 3 mg/kg; for maximum plasma concentration (Cmax) relative to that of RBN-2397 / plasma exposure relative to that of RBN-2397: oral administration of 10 mg/kg; for F%: oral bioavailability, PO 10mg/kg vs IV 3mg/kg; for AUClast (plasma exposure) relative to that of RBN-2397: tail vein injection of 3 mg/kg
[3] = system: STAT1 and p-STAT1 proteins in CT26 mouse colon cancer cells; test: Restoration of the type I interferon signaling pathway in cells (Western blot of STAT1 and p-STAT1); settings: CT26 cells, 0.1, 0.3, 1, 3 and 10 µM, 24 hours, Western blot (Figure 1)

In the case of `CCC(ONC(=O)N1CCN(c2ncc(C(F)(F)F)cn2)CC1)c1c[nH]c(=O)c(C(F)(F)F)c1` (racemic), the IC50 (Recombinant human PARP7) is reported as 5.1 nM.

For `CC1=CN(c2ncc(C(F)(F)F)cn2)CCC1C(=O)NO[C@H](C)c1c[nH]c(=O)c(C(F)(F)F)c1` (stereo partly shown), the IC50 (Recombinant human PARP7) was 31 nM.

For `CC(=O)Nc1cnc(N2CC=C(C(=O)NO[C@H](C)c3c[nH]c(=O)c(C(F)(F)F)c3)CC2)nc1`, the IC50 (Recombinant human PARP7) was 24 nM.

In the case of `C[C@@H](ONC(=O)N1C2CCC1CN(c1ncc(C(F)(F)F)cn1)C2)c1c[nH]c(=O)c(C(F)(F)F)c1`, the IC50 (Recombinant human PARP7) is reported as 2.1 nM.

`CC(CONC(=O)C1=CCN(c2ncc(C(F)(F)F)cn2)CC1)c1c[nH]c(=O)c(C(F)(F)F)c1` (stereo not shown) showed an IC50 (Recombinant human PARP7) of 8.7 nM.

In the case of `C[C@@H](ONC(=O)C1=CCN(c2ncc(Br)cn2)CC1)c1c[nH]c(=O)c(C(F)(F)F)c1`, the IC50 (Recombinant human PARP7) is reported as 1.4 nM.

For `C[C@@H](ONC(=O)N1CCN(c2ncc(C(F)(F)F)c3[nH]cnc23)CC1)c1c[nH]c(=O)c(C(F)(F)F)c1`, the IC50 (Recombinant human PARP7) was 0.55 nM.

For `C[C@@H](ONC(=O)N1C2CC1CN(c1ncc(C(F)(F)F)cn1)C2)c1c[nH]c(=O)c(C(F)(F)F)c1`, the IC50 (Recombinant human PARP7) was 51 nM.

Work on `C[C@H](ONC(=O)C1=CCN(c2ncc(C(F)(F)F)cn2)CC1)c1c[nH]c(=O)c(C(F)(F)F)c1` yielded an IC50 (Recombinant human PARP7) of 18 nM.

For `C[C@@H](ONC(=O)C1=CCN(c2ncc(C(F)(F)F)cn2)CC1)c1c[nH]c(=O)c(C(F)(F)F)c1`, the IC50 (Recombinant human PARP7) was 1.9 nM, the “PARP 12 IC50/PARP7 IC50” value (recombinant human PARP12) was 120.5 fold and the IC50 (recombinant human PARP12) was 229 nM. For the same compound, the “PARP1 IC50/PARP7 IC50” value [1] was 421.6 fold, the IC50 [1] was 801 nM and the “CL(iv)” value ([2]; IV 3mg/kg) was 0.919 L/h/kg. The “plasma half-life (T1/2) relative to that of RBN-2397” value ([2]; IV 3mg/kg) was 5.4 times, the AUC last ([2]; IV 3mg/kg) was 3224 ng·h/mL and the T1/2 ([2]; IV 3mg/kg) was 1.08 h. For the same compound, the AUC last ([2]; PO 10mg/kg) was 9388 ng·h/mL, the Cmax ([2]; PO 10mg/kg) was 5163 ng/mL and the “drug clearance rate (CL(iv)) of RBN-2397 relative to that of the compound” value [2] was 4.5 times. The “maximum plasma concentration (Cmax) relative to that of RBN-2397” value [2] was 7.6 times, the “plasma exposure relative to that of RBN-2397” value [2] was 16.1 times and the F% [2] was 88.4%. For the same compound, the “AUClast (plasma exposure) relative to that of RBN-2397” value [2] was “approximately 4.4 times” and the “expression of STAT1 and p-STAT1 proteins” value [3] was “dose-dependently increased”.

Work on `C[C@H](ONC(=O)C1=CCN(c2ccc(C(F)(F)F)cn2)CC1)c1c[nH]c(=O)c(C(F)(F)F)c1` yielded an IC50 (Recombinant human PARP7) of 122 nM.

`C[C@@H](ONC(=O)C1=CCN(c2ncc3ccccc3n2)CC1)c1c[nH]c(=O)c(C(F)(F)F)c1` gave an IC50 (Recombinant human PARP7) of 1.2 nM.

With `C[C@@H](ONC(=O)C1=CCN(c2ncc(C3CC3)cn2)CC1)c1c[nH]c(=O)c(C(F)(F)F)c1` the IC50 (Recombinant human PARP7) was 1.6 nM.

`C[C@@H](ONC(=O)C1=CCN(c2ncc(C#N)cn2)CC1)c1c[nH]c(=O)c(C(F)(F)F)c1` gave an IC50 (Recombinant human PARP7) of 3.2 nM.

For `CCC(ONC(=O)C1=CCN(c2ncc(C(F)(F)F)cn2)CC1)c1c[nH]c(=O)c(C(F)(F)F)c1` (racemic), the IC50 (Recombinant human PARP7) was 6.6 nM.

For `O=C(NOC(CO)c1c[nH]c(=O)c(C(F)(F)F)c1)C1=CCN(c2ncc(C(F)(F)F)cn2)CC1` (stereo not shown), the IC50 (Recombinant human PARP7) was 5.8 nM.

For `C[C@@H](ONC(=O)C1=CCN(c2ncc(-c3ccc(F)cc3)cn2)CC1)c1c[nH]c(=O)c(C(F)(F)F)c1`, the IC50 (Recombinant human PARP7) was 3 nM.

For `CC(=O)Nc1cnc(N2CCN(C(=O)NO[C@H](C)c3c[nH]c(=O)c(C(F)(F)F)c3)CC2)nc1`, the IC50 (Recombinant human PARP7) was 16 nM.

`C[C@@H](ONC(=O)N1CCN(c2ncc(C(F)(F)F)c3cc[nH]c23)CC1)c1c[nH]c(=O)c(C(F)(F)F)c1` gave an IC50 (Recombinant human PARP7) of 1 nM.

For `O=C(NOCc1c[nH]c(=O)c(C(F)(F)F)c1)C1=CCN(c2ncc(C(F)(F)F)cn2)CC1`, the IC50 (Recombinant human PARP7) was 6.9 nM.

`CC[C@@H](ONC(=O)N1CCN(c2ncc(C(F)(F)F)cn2)CC1)c1c[nH]c(=O)c(C(F)(F)F)c1` (single isomer, unassigned) showed an IC50 (Recombinant human PARP7) of 1.1 nM.

For `C[C@H](ONC(=O)C1=CCN(c2ncc(C3CC3)cn2)CC1)c1c[nH]c(=O)c(C(F)(F)F)c1`, the IC50 (Recombinant human PARP7) was 83 nM.

`CC[C@@H](ONC(=O)C1=CCN(c2ncc(C(F)(F)F)cn2)CC1)c1c[nH]c(=O)c(C(F)(F)F)c1` gave an IC50 (Recombinant human PARP7) of 4.1 nM.

With `C[C@@H](ONC(=O)N1CCN(c2ncc(C(F)(F)F)cn2)CC1)c1c[nH]c(=O)c(C(F)(F)F)c1` the IC50 (Recombinant human PARP7) was 1.5 nM, the “PARP 12 IC50/PARP7 IC50” value (recombinant human PARP12) was 53.3 fold and the IC50 (recombinant human PARP12) was 80 nM. The “PARP1 IC50/PARP7 IC50” value [1] was 300.7 fold, the IC50 [1] was 451 nM and the “CL(iv)” value ([2]; IV 3mg/kg) was 0.487 L/h/kg. For the same compound, the “plasma half-life (T1/2) relative to that of RBN-2397” value ([2]; IV 3mg/kg) was 8.2 times, the AUC last ([2]; IV 3mg/kg) was 6037 ng·h/mL and the T1/2 ([2]; IV 3mg/kg) was 1.63 h. For the same compound, the AUC last ([2]; PO 10mg/kg) was 19377 ng·h/mL, the Cmax ([2]; PO 10mg/kg) was 7527 ng/mL and the “drug clearance rate (CL(iv)) of RBN-2397 relative to that of the compound” value [2] was 8.4 times. For the same compound, the “maximum plasma concentration (Cmax) relative to that of RBN-2397” value [2] was 11.0 times, the “plasma exposure relative to that of RBN-2397” value [2] was “approximately 33.3 times” and the F% [2] was 94.3%. The “AUClast (plasma exposure) relative to that of RBN-2397” value [2] was “approximately 8.2 times” and the “expression of STAT1 and p-STAT1 proteins” value [3] was “dose-dependently increased”.

`C[C@H](ONC(=O)N1CCN(c2ncc(C(F)(F)F)c3cc[nH]c23)CC1)c1c[nH]c(=O)c(C(F)(F)F)c1` gave an IC50 (Recombinant human PARP7) of 4.6 nM.

`C[C@H](ONC(=O)N1CCN(c2ncc(C(F)(F)F)cn2)CC1)c1c[nH]c(=O)c(C(F)(F)F)c1` showed an IC50 (Recombinant human PARP7) of 10.2 nM.

In the case of `C[C@@H](ONC(=O)N1CCN(c2ncc(C(F)(F)F)cn2)C[C@@H]1C)c1c[nH]c(=O)c(C(F)(F)F)c1`, the IC50 (Recombinant human PARP7) is reported as 0.79 nM.

Work on `C[C@@H]1CN(c2ncc(C(F)(F)F)cn2)CCN1C(=O)NO[C@H](C)c1c[nH]c(=O)c(C(F)(F)F)c1` yielded an IC50 (Recombinant human PARP7) of 0.72 nM.

In the case of `CC[C@H](ONC(=O)C1=CCN(c2ncc(C(F)(F)F)cn2)CC1)c1c[nH]c(=O)c(C(F)(F)F)c1`, the IC50 (Recombinant human PARP7) is reported as 84 nM.

`CC[C@H](ONC(=O)N1CCN(c2ncc(C(F)(F)F)cn2)CC1)c1c[nH]c(=O)c(C(F)(F)F)c1` (single isomer, unassigned) gave an IC50 (Recombinant human PARP7) of 25 nM.

In the case of `[2H][C@](C)(ONC(=O)C1=CCN(c2ncc(C(F)(F)F)cn2)CC1)c1c[nH]c(=O)c(C(F)(F)F)c1`, the IC50 (Recombinant human PARP7) is reported as 1.3 nM.

`[2H][C@@](C)(ONC(=O)C1=CCN(c2ncc(C(F)(F)F)cn2)CC1)c1c[nH]c(=O)c(C(F)(F)F)c1` gave an IC50 (Recombinant human PARP7) of 14 nM.

`O=C(NOCc1c[nH]c(=O)c(C(F)(F)F)c1)C1C=CN(c2ncc(C(F)(F)F)cn2)CC1` (stereo not shown) showed an IC50 (Recombinant human PARP7) of 16 nM.

`O=C(NOCc1c[nH]c(=O)c(C(F)(F)F)c1)N1CCN(c2ncc(C(F)(F)F)cn2)CC1` gave an IC50 (Recombinant human PARP7) of 4.1 nM.

For `C[C@@H](ONC(=O)C1=CCN(c2ccc(C(F)(F)F)cn2)CC1)c1c[nH]c(=O)c(C(F)(F)F)c1`, the IC50 (Recombinant human PARP7) was 1.1 nM.

For `C[C@@H](ONC(=O)C1=CCN(c2ncc(C(F)(F)F)c3[nH]cnc23)CC1)c1c[nH]c(=O)c(C(F)(F)F)c1`, the IC50 (Recombinant human PARP7) was 0.64 nM.

With `C[C@@H](ONC(=O)N1CCN(c2ncc(C3CC3)cn2)CC1)c1c[nH]c(=O)c(C(F)(F)F)c1` the IC50 (Recombinant human PARP7) was 1.3 nM.

Compound `CC1=C(C(=O)NO[C@H](C)c2c[nH]c(=O)c(C(F)(F)F)c2)CCN(c2ncc(C(F)(F)F)cn2)C1` has an IC50 (Recombinant human PARP7) of 26 nM.
